The test system of test [1] is NF-kB reporter in Jurkat cells. The test can be described thus: NF-kB reporter assay in Jurkat cells stimulated with aCD3/aCD28/PMA. The test is classed as cell-based. The settings on record: read-out: NF-kB Reporter Assay IC50, 1 hr compound pre-incubation, aCD3/aCD28/PMA stimulation 4 hr, One-Glo readout. The protocol: Jurkat cells were maintained in complete RPMI 1640 media supplemented with 10% FBS. Prior to the assay, 120 nL of the serial diluted compound was added in each well of 384-well flat bottom white plate (Corning #3570) by using liquid handler Echo550. Jurkat cells were harvested by centrifugation at 120 g for 10 min and resuspended in fresh RPMI 1640 media without serum. […] (25,000 cells) were seeded in each well of 384-well plate containing compound. After 1 hr incubation at 37° C. in a 5% CO2 incubator, […] of diluted aCD3/aCD28/PMA (final concentration at […] and […], respectively) in RPMI 1640 without serum were added to each well. After incubation at 37° C. in 5% CO2 for 4 hr, […] of One-Glo reagent (Promega #E6120) was added into each well. The plate was left at room temperature for 5 min and the signal was measured on EnVision (PerkinElmer).
Compounds in which an IC50 was not measured are designated as “N/A”.

Amino acid sequences for entries named in this document (tags omitted).
UniProt Q9UDY8, whole entry: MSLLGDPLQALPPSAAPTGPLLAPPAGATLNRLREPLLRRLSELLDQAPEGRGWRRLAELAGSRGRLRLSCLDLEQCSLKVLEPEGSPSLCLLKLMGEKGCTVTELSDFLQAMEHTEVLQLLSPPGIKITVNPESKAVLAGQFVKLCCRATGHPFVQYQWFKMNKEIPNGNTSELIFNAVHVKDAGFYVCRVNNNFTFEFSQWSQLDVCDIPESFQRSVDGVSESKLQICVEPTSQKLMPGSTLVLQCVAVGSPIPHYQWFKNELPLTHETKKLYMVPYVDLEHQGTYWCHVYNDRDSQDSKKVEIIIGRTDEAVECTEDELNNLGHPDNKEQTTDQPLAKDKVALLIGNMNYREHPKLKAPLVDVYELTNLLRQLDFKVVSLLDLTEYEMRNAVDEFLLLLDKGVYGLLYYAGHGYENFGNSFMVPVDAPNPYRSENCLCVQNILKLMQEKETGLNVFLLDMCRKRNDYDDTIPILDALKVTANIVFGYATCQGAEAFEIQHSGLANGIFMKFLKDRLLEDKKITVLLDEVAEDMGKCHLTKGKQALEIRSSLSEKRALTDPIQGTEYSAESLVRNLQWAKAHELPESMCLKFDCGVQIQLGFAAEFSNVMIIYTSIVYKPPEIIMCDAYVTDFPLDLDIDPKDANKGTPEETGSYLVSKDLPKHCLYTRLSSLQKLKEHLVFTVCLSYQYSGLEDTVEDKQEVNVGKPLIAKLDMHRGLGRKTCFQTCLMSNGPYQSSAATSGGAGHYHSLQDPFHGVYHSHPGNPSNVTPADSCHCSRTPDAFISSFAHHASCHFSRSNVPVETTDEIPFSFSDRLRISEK

Test [2] has as its target Avi-tagged FL MALT-1 (Homo sapiens (Human), UniProt Q9UDY8). The test can be described thus: MALT-1 Fluorogenic Peptide Cleavage Assay (MALT1 inhibition assay). The following applies: read-out: MALT1 Inhibition IC50; Ac-LRSR-AMC peptide substrate, 30 min pre-incubation, 90 min reaction at room temperature. On the procedure:
Inhibition of MALT1 activity by the presence of small molecules was evaluated using MALT-1 Fluorogenic Peptide Cleavage Assay. The assay utilizes a quenched AMC-labelled peptide that contains the MALT-1 recognition sequence and cleavage site (LRSR). MALT-1 mediated cleavage of the peptide relieves the quenching and leads to an increase in fluorescence at excitation (342 nm) and emission (441 nm). […]
Compounds were plated to provide a 2% DMSO final concentration using a ProxiPlate-384 Plus F Black 384-shallow well microplate. The assay-ready plates were equilibrated to room temperature. […]
Fluorescence intensity was determined using a CLARIOstar microplate reader (BMG LABTECH) using the optimised AMC mode. Before taking readings, a 70% gain was applied on the neutral control well. […]

For the compound `COc1ccc2cnn(C)c2c1NS(=O)(=O)c1cnn(-c2cc(C(C)OC)ccn2)c1` (single isomer, unassigned) [Compound I-291, N-(6-methoxy-1-methyl-1H-indazol-7-yl)-1-(4-(1-methoxyethyl)pyridin-2-yl)-1H-pyrazole-4-sulfonamide], the IC50 was less than 0.4 µM in test [1] and more than 2.5 µM in test [2].

Values taken from patent US20240150321A1, “PYRAZOLYLSULFONAMIDE COMPOUNDS AND THEIR USE IN THERAPY” (HOTSPOT THERAPEUTICS, INC., priority 2022, published 2024).
